# Measured values from BindingDB's records for doi:10.1021/acs.jnatprod.5b00062 (Albert-Ludwigs-University of Freiburg, 2015).
# By UniProt entry, the sequences of proteins in these tests, tags left out. Where a name states a change or a piece, a line headed by the entry shows the natural chain unless it says otherwise.
# UniProt P11507: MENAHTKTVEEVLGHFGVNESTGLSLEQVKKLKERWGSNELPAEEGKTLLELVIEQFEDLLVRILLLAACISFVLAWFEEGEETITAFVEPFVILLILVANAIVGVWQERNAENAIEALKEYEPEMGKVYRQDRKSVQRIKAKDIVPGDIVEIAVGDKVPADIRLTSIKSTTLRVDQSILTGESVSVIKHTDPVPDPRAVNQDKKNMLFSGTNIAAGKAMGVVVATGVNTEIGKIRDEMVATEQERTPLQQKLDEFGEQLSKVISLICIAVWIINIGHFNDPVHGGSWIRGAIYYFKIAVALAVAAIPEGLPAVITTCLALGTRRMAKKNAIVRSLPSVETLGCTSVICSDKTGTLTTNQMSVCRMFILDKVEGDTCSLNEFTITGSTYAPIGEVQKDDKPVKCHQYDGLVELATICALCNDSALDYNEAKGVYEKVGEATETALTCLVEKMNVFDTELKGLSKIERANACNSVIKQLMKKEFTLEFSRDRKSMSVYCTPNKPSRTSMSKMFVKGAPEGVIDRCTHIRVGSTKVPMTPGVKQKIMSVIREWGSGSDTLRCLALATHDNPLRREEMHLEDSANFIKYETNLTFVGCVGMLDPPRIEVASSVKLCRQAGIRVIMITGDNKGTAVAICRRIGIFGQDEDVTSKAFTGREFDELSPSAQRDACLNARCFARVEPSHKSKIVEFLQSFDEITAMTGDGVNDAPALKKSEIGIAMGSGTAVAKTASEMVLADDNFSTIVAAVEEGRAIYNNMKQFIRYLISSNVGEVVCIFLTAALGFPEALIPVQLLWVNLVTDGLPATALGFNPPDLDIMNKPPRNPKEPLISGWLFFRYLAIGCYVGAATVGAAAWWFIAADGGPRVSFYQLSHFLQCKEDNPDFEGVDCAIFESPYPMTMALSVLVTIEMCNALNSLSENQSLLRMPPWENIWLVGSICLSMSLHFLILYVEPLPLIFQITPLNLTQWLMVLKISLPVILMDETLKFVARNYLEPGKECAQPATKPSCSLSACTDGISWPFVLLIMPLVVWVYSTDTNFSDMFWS
# Molecular target: Sarcoplasmic/endoplasmic reticulum calcium ATPase 2 (Rattus norvegicus, UniProt P11507)
# Experiment: Inhibition of Wistar rat heart SERCA2a after 1 hr
smiles,measurement,value
CC[C@H](C)[C@H]1O[C@]2(CC[C@@H]1C)C[C@@H]1C[C@@H](C/C=C(\C)[C@@H](O[C@H]3C[C@H](OC)[C@@H](O[C@H]4C[C@H](OC)[C@@H](O)[C@H](C)O4)[C@H](C)O3)[C@@H](C)/C=C/C=C3\CO[C@@H]4[C@H](O)C(C)=C[C@@H](C(=O)O1)[C@]34O)O2 [ABAMECTIN],IC50,6.72 µM
